# Measurements from patent US9656988B2 (Pharmacyclics LLC, priority 2013, dated 2017).
# The chains behind the UniProt entries cited, without tags or fusion partners. Where a name states a change or a piece, a line headed by the entry shows the natural chain unless it says otherwise.
# UniProt Q06187: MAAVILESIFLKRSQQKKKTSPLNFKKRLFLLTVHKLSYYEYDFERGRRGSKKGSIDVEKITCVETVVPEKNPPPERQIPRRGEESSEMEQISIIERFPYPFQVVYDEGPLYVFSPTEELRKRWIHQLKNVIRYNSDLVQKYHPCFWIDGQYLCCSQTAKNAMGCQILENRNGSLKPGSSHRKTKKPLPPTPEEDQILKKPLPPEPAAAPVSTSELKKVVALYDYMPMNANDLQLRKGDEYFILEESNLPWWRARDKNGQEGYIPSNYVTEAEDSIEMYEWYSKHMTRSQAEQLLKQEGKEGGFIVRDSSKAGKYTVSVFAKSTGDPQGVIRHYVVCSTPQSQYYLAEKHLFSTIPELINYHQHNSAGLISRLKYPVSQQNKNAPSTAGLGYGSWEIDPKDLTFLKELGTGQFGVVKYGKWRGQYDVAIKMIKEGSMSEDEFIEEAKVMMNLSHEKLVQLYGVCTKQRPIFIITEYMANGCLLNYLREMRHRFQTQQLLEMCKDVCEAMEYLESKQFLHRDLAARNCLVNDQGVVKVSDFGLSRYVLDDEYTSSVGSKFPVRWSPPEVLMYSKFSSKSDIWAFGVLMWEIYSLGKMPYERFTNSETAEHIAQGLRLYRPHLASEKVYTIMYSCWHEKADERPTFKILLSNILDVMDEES
# pIC50: −log10 of the molar value. Read-outs that look alike come from different tables or passages of the source.
# Target: BTK (Homo sapiens (Human), UniProt Q06187)
# Assay: Btk in vitro inhibitory activity (one of Method A TR-FRET, Method B electrophoretic mobility shift, Method C radiometric filter binding)
# Format: biochemical
# [1] = determined using one of the methods of Example 355a, 355b and 355c
pIC50,pIC50 [1],Compound
> 8.00,> 8.00,"CN(C)C(=O)N[C@@H]1CCCN(c2cnc(C(N)=O)c(Nc3ccc(C4CCN(C5CC5)CC4)cc3)n2)C1 [Example 206, (R)-3-(4-(1-cyclopropylpiperidin-4-yl)phenylamino)-5-(3-(3,3-dimethylureido)piperidin-1-yl)pyrazine-2-carboxamide]"
–,7.00 to 8.00,COc1ccc(Nc2nc(N3CCC[C@@H](NC(=O)c4ccc(OC)cc4)C3)cnc2C(N)=O)cc1 [Example 110]
